Laboratory results taken from article PMC8413284.

Chains of the proteins cited; added tags and fusions are not shown. A change or cut given only in a name is not applied to a line headed by its entry. A line that says so, or that is headed by a name, gives the form on record, which may keep a tag or linker. Residues count along the entry.
UniProt P02745, 23-245: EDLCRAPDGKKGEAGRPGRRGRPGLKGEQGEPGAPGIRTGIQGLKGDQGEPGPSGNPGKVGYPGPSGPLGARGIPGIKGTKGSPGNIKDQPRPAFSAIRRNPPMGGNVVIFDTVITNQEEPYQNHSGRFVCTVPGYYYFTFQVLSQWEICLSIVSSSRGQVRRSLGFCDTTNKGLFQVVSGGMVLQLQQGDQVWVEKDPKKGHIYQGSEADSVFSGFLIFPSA
purified human C1q, UniProt P02746, 28-253: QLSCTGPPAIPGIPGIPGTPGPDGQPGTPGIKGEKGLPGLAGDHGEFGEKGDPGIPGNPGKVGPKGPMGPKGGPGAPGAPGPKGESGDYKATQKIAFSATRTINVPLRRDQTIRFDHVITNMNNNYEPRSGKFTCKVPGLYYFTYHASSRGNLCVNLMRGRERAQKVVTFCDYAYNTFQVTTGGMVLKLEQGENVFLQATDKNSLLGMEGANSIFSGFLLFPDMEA
purified human C1q, UniProt P02747, 29-245: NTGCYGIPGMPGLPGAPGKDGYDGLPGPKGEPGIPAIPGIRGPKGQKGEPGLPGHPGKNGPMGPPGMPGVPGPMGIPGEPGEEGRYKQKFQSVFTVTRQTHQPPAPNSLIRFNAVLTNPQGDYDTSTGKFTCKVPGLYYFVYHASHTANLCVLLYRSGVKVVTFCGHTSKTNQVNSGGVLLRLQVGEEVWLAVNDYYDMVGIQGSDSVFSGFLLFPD
rituximab hIgG1 μtp C575S P331S (human), light, as listed by the source, chain 2 of 2: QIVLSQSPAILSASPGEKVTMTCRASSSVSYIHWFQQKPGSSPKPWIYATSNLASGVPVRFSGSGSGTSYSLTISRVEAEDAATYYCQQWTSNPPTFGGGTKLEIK
rituximab hIgG1 μtp C575S P331S (human), heavy, as listed by the source, chain 1 of 2: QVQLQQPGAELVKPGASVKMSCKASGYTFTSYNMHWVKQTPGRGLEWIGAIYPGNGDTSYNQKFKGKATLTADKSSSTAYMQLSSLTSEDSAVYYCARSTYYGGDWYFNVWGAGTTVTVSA

Experiments:
[1] = biological target: rituximab hIgG1 μtp C575S P331S (human)
[2] = biological target: rituximab hIgG2 μtp pre-formed hexamer (human)
[3] = biological target: rituximab hIgG1 μtp pre-formed hexamer (human)

CDC lysis of Ramos cells at 10 µg/ml mAb [2]: 100% | enhancement in CDC activity above wild-type hIgG1 [3]: 130 fold
Substance: purified human C1q (from UniProt P02745 23-245; P02746 28-253; P02747 29-245) (complex)
drop in CDC killing with the P331S mutation [1]: 53%
